One experiment addresses human 5-HT2B receptor (Homo sapiens, UniProt P41595). To be noted: normalized AUC at 5-HT2C / normalized AUC at 5-HT2B.
A further experiment addresses human 5-HT2A receptor (Homo sapiens, UniProt P28223). Particulars: normalized AUC at 5-HT2C / normalized AUC at 5-HT2A.

Amino acid sequences for entries named in this document (tags omitted).
UniProt P41595, whole entry: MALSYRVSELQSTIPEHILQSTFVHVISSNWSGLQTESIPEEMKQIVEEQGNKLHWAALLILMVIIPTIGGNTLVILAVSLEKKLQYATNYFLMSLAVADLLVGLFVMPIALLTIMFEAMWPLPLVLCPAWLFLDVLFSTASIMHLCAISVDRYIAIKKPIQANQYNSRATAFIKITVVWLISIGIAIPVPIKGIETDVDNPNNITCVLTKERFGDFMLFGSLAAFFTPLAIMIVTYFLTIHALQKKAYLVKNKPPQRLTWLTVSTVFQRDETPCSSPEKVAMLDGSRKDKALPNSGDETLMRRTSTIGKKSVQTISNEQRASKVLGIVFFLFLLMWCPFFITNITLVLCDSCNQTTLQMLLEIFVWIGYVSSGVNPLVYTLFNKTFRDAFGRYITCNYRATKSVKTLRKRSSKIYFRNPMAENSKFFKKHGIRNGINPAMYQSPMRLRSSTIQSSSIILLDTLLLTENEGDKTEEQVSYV
UniProt P28223, whole entry: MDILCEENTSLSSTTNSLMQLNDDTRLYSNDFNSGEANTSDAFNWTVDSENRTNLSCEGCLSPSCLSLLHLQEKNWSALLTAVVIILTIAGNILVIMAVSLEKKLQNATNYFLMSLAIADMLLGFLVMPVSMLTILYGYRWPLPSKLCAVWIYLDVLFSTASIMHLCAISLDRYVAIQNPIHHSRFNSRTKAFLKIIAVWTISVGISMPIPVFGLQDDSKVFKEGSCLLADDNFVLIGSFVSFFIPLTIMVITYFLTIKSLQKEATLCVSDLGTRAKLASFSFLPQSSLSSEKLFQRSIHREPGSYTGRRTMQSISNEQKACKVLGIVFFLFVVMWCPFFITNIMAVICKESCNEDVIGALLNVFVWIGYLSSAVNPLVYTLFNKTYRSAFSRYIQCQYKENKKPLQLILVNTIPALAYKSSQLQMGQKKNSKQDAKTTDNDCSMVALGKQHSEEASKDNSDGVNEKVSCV

With `Clc1cccc(N2CCNCC2)c1` [mCPP, meta-chlorophenylpiperazine], the “AUC 2C/2B Selectivity Ratio” value at human 5-HT2B receptor amounted to 2.1. Also, the “AUC 2C/2A Selectivity Ratio” value on human 5-HT2A receptor is reported as 2.1.
